{"source": "ChEMBL document CHEMBL5131394", "about": "“Structure-activity and mechanistic studies of non-peptidic inhibitors of the PLK1 polo box domain identified through REPLACE” (Eur J Med Chem, 2022)", "assay": "Antiproliferative activity against human p53HCT116 cells assessed as cell viability measured after 72 hrs by MTT assay", "format": "functional, cell-based", "settings": "p53HCT116, 72 h"}
{"smiles": "CCCCCCCCc1ccc(C(=O)Nc2cccc(F)c2C(=O)O)cc1", "values": [{"measurement": "IC50", "result": 12.4, "unit": "µM"}]}
